Assay results: patent US6417210B1, “Treatment of dyskinesias and Parkinson's disease with riluzole and levodopa” (MOR-Research Applications Ltd., priority 1998, dated 2002)

System: patients suffering from advanced Parkinson's disease with severe levodopa-induced dyskinesias

For `Nc1nc2ccc(OC(F)(F)F)cc2s1` [Riluzole, 2-amino-6-trifluoromethoxy benzothiazole], the “Reduction of mean daily waking hours spent in severe dyskinesias” value (during treatment versus before treatment, 0.01<p<0.05 paired t-test) was “about 30%”, the “Decrease of mean daily waking hours spent with dyskinesias” value (during treatment versus before treatment, P<0.01 paired t-test) was “about 24%” and the “Mean daily waking hours spent with dyskinesias” value (during treatment with riluzole up to 50 mg b.i.d., six patients, before treatment 6.92±3.67 hours, P<0.01 paired t-test) was 5.26 ± 4.23 h. For the same compound, the “Mean daily waking hours spent in severe dyskinesias” value (during treatment with riluzole, before treatment 2.76±1.77 hours, 0.01<p<0.05 paired t-test) was 1.94 ± 2.40 h and the “Attenuation of dyskinesias (result in words)” value (open-label, six patients) was “effective in attenuating the dyskinesias”.
